From PubChem BioAssay
Only some compounds are listed: those with a hit (about 1.5% of all), similar ones and a draw of the others.
RAD52 anneal inh: inhibitors of human RAD52 DNA annealing; recombinant RAD52 DNA annealing, FRET fluorescence; inhibition, % at 18.7 µM; actives 0.46% (n = 360,000); AID 651710;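 active means every replicate showing at least 50% inhibition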
PglD DTNB: blocks C. jejuni PglD acetyltransferase activity; purified PglD enzyme, DTNB colorimetric CoA detection; inhibition, % at 12.5 µM; actives 0.098% (n = 360,000); AID 602405; in the data active means inhibition above about 16%, passing the limit was not always enough
Yeast UUG start: yeast start codon fidelity modulation; AID 602363; activity score, % at 18.7 µM; S. cerevisiae UUG-firefly luciferase reporter, luminescence/redox ratio; 0.13% of 350,000 active;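 active means replicate mean at a twofold rise or more, about +100% in these data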;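 further: firefly luciferase made from a UUG start codon reports start codon fidelity; reporter light over untreated wells divided by growth signal over untreated wells; some hits fall short of that in this replicate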
CASP6 VEID inh: inhibitors of human caspase-6; P55212; purified caspase-6, Z-VEID-R110 cleavage fluorescence; inhibition, % at 12.5 µM; actives 0.53% (n = 350,000);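 active means mean inhibition across replicates at least about 35%, with every replicate also reaching that limit, limit read from the data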;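 further: 0% = median of neutral control wells and 100% = no fluorescence left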
INS-1E GSIS act: GLuc luminescence reporter in INS-1E cells, primary screen for activators of glucose-dependent secretion of insulin; actives 0.61% (n = 370,000); activation, % at 16.6 µM; INS-1E GLuc reporter insulin secretion, 2-3 h; AID 743287;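 active means lowest replicate activation of at least 40%, so every replicate reaches that level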;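 further: 0% = median of neutral control wells and 100% = median of IBMX positive control wells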
RAD54 branch: blocks human RAD54 Holliday junction branch migration | AID 602329 | inhibition, % at 10.4 µM | FAM/BHQ fluorescence | actives 0.14% (n = 360,000);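 active means mean normalized replicate activity at least 40 and at least half of replicates scoring 40 or more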;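 further: 0% = median of neutral control wells and 100% = median of positive control wells; inhibitors cause a drop in the FAM fluorescence signal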
* marks the source's active call; other numbers are inactive results; x = no result given.

no. | SMILES | RAD52 anneal inh | PglD DTNB | Yeast UUG start | CASP6 VEID inh | INS-1E GSIS act | RAD54 branch
1 | CSc1ccc(/C=N/N(C)S(=O)(=O)c2ccc(C)cc2)cc1 | -1 | -1 | -10 | 1 | 121* | 14
2 | Cc1ccc(/C=N/N(C)S(=O)(=O)c2ccc(C)cc2)cc1 | 1 | -2 | 0 | -1 | 2 | 3
3 | CCn1cc(C(=O)O)c(=O)c2cc(F)c(N3CCN(C(=S)NC(=O)c4ccc(F)cc4)CC3)cc21 | -15 | 6 | -29 | -2 | 19 | 11
4 | CCn1cc(C(=O)O)c(=O)c2cc(F)c(N3CCN(C(=S)NC(=O)c4ccccc4Br)CC3)cc21 | -15 | 3 | -17 | 36* | 1 | -6
5 | CC(OC(=O)Cn1c(C(F)(F)F)nc2ccccc21)C(N)=O (configuration not stated) | x | x | x | x | 48 | x
6 | Cc1ccc(CN2CCN(/N=C/c3ccc(O)c(O)c3)CC2)cc1 | 5 | 3 | -16 | 15 | 17 | 1
7 | CC(=O)Nc1cccc(-n2c(=O)n(Cc3ccccc3)c(=O)c3[nH]cnc32)c1 | -21 | 1 | -9 | 3 | 43* | 2
8 | COc1cccc(-n2c(=O)n(Cc3ccccc3)c(=O)c3[nH]cnc32)c1C | -17 | 3 | -15 | 4 | 76* | -3
9 | COc1ccc(C)c(-n2c(=O)n(Cc3ccccc3)c(=O)c3[nH]cnc32)c1 | -13 | 5 | -18 | 2 | 63* | 3
10 | Cc1ccc(S(C)=O)cc1-n1c(=O)n(Cc2ccccc2)c(=O)c2[nH]cnc21 (configuration not stated) | 14 | -1 | -15 | 0 | 11 | -3
11 | COc1ccc(Cn2c(=O)c3[nH]cnc3n(-c3ccccc3C)c2=O)cc1 | -13 | x | x | 4 | 64* | x
12 | COc1ccc(/C=N/Nc2nnc(Cc3ccccc3)c(=O)[nH]2)cc1OC | -2 | x | x | -2 | 19 | x
13 | O=C(NCC[C@@H]1CC[C@H](NS(=O)(=O)c2ccc(F)cc2)[C@H](CO)O1)Nc1ccc(F)cc1 | 16 | -1 | -8 | -163 | -3 | 2
14 | Cc1c(C(=O)N2CCCCC2)c(S(=O)(=O)N(C)Cc2ccco2)c(C)n1C | -13 | 1 | 12 | 2 | 1 | -4
15 | CSc1nnnn1-c1ccc(C(=O)O)cc1 | x | 5 | -17 | x | 26 | -9
16 | Cc1cc(C)c(CSc2nnnn2-c2ccc(C(=O)O)cc2)c(C)c1 | 13 | x | x | 4 | 89* | x
17 | O=C(O)c1ccc(-n2nnnc2SCc2cccc(Br)c2)cc1 | -11 | 7 | -2 | 3 | 63* | -16
18 | Cc1nc(C(Cl)(Cl)Cl)nc2[nH]ccc(=O)c12 | -31 | x | x | 11 | 130* | x
19 | O=C(Cn1cnc([N+](=O)[O-])n1)c1ccccc1 | -3 | 10 | -26 | -3 | 3 | -2
20 | O=C(Cn1cnc([N+](=O)[O-])n1)c1ccc(O)c(O)c1 | -6 | -1 | -3 | 43* | 14 | -12
21 | COc1cc(NC(=O)CN2C(=O)C(=O)N(CC(C)C)C2=O)cc(OC)c1 | -3 | 0 | -17 | 3 | 43* | 1
22 | Cc1cc2occ(CC(=O)NNC(=O)c3ccccc3)c2cc1C | -6 | 0 | -8 | -1 | -6 | -7
23 | O=C1CC(c2ccco2)Cc2nc(N3CCN(Cc4ccc5c(c4)OCO5)CC3)ncc21 (configuration not stated) | x | -2 | 0 | x | x | 10
24 | Cc1cc(Nc2cc(Cl)cc(Cl)c2)nc(N)n1 | 25 | x | x | 0 | -5 | x
25 | CCOC(=O)c1sc(N(Cc2ccccc2)C(=O)CCl)nc1C | -5 | 0 | -17 | 0 | -19 | 3
26 | O=C(O)CSCC(=O)N(Cc1ccccc1)c1nc(-c2ccccc2)c(-c2ccccc2)s1 | -4 | -1 | -9 | 37* | -2 | 10
27 | Nc1c(/C=C2/C=CC(=O)C(O)=C2)c(=O)nc2sc(CC(=O)N3CCCC3)nn12 | -187 | -1 | -10 | 48* | 7 | -16
28 | Nc1c(/C=C2/C=CC(=O)C(O)=C2)c(=O)nc2sc(CC(=O)N3CCOCC3)nn12 | -176 | -3 | -26 | 28 | -7 | -6
29 | Nc1c(/C=C2/C=CC(=O)C(O)=C2)c(=O)nc2sc(CC(=O)N3CCCCC3)nn12 | -175 | 0 | -20 | 83* | 4 | -26
30 | Nc1c(C=C2C=CC(=O)C=C2)c(=O)nc2sc(CC(=O)N3CCCCC3)nn12 | -46 | -7 | -24 | 27 | 0 | -1

Look-ups from above:
In RAD54 branch, Cc1ccc(CN2CCN(/N=C/c3ccc(O)c(O)c3)CC2)cc1 is entered as 1
In CASP6 VEID inh, Nc1c(/C=C2/C=CC(=O)C(O)=C2)c(=O)nc2sc(CC(=O)N3CCCC3)nn12 is entered as 48*
In RAD54 branch, O=C1CC(c2ccco2)Cc2nc(N3CCN(Cc4ccc5c(c4)OCO5)CC3)ncc21 (configuration not stated) is entered as 10
In CASP6 VEID inh, Cc1cc(Nc2cc(Cl)cc(Cl)c2)nc(N)n1 is entered as 0

Following part:
no. | SMILES | RAD52 anneal inh | PglD DTNB | Yeast UUG start | CASP6 VEID inh | INS-1E GSIS act | RAD54 branch
31 | COc1cccc(N2[C@@H](CC(=O)O)c3ccc(/C=C/C(=O)O)cc3S2(=O)=O)c1 | -10 | -3 | 23 | 62* | 15 | -6
32 | COc1cccc(N2[C@@H](CC(C)=O)c3ccccc3S2(=O)=O)c1 | -10 | -4 | -3 | 7 | 18 | -3
33 | Nc1ccc2c(c1)Cc1c(F)cccc1-2 | x | 2 | -10 | x | x | -1
34 | CN(Cc1ccccc1)c1nc2c(c(=O)[nH]c(=O)n2C)n1Cc1ccccc1F | -8 | 2 | -5 | 2 | 39 | 0
35 | Cn1c(=O)[nH]c(=O)c2c1nc(CN1CCOCC1)n2Cc1ccccc1 | -8 | -2 | -8 | 51* | -3 | -1
36 | CCCCCn1c(N(C)Cc2ccccc2)nc2c1c(=O)[nH]c(=O)n2C | -14 | 4 | -8 | -2 | 40* | -14
37 | Cn1c(=O)[nH]c(=O)c2c1nc(CN1CCOCC1)n2CCc1ccccc1 | x | -2 | -16 | x | x | 3
38 | CN(Cc1ccccc1)c1nc2c(c(=O)[nH]c(=O)n2C)n1Cc1ccccc1 | -7 | 2 | -18 | -1 | 70* | -11
39 | Cc1ccc(-c2nn(-c3ccccc3)cc2C(=O)OCC(=O)Nc2ncc(Cl)cc2Cl)cc1 | -22 | x | x | 1 | -3 | x
40 | O=c1[nH]c(N2CCOCC2)cc2ccccc12 | 0 | -5 | -50 | 96* | 6 | -1
41 | O=C(COC(=O)C1CCC1)NC(=O)c1ccccc1 | -18 | 5 | -8 | 3 | 42* | -9
42 | Fc1ccc(-c2csc3nnc(SCc4cccnc4)n23)cc1 | -11 | 10 | -17 | 0 | 56* | -9
43 | c1ccc(-c2csc3nnc(SCc4ccc5c(c4)OCO5)n23)cc1 | -3 | -5 | -14 | 2 | 29 | -3
44 | C[C@H](CO)N1C[C@H](C)[C@H](CN(C)C(=O)Nc2ccc3c(c2)OCO3)OCCCC[C@H](C)Oc2ccc(NS(C)(=O)=O)cc2C1=O | 16 | 2 | 3 | 0 | 11 | -3
45 | N#CC1=C(C2CC2)CC(c2ccccc2)C(C#N)=C1N (configuration not stated) | x | 6 | -5 | x | x | -9
46 | O=C1[C@H]2[C@@H](c3ccccc3)N[C@]3(CCCN(CC4CCCCC4)C3=O)[C@H]2C(=O)N1Cc1ccccc1 | -25 | -3 | 0 | 41* | x | -4
47 | O=C1[C@H]2[C@@H](c3ccc(C(F)(F)F)cc3)N[C@]3(CCCN(CC4CCCCC4)C3=O)[C@H]2C(=O)N1Cc1ccccc1 | -2 | -2 | -5 | 4 | -22 | -15
48 | CCC(=O)N(C)C[C@H]1Oc2cc(-c3ccccc3C)ccc2S(=O)(=O)N([C@H](C)CO)C[C@@H]1C | 5 | 1 | 11 | 2 | 15 | -13

Some of the entries so far, with two lines to a compound.
Results follow in this order: RAD52 anneal inh, PglD DTNB, Yeast UUG start, CASP6 VEID inh, INS-1E GSIS act, RAD54 branch
21: COc1cc(NC(=O)CN2C(=O)C(=O)N(CC(C)C)C2=O)cc(OC)c1
→ -3, 0, -17, 3, 43*, 1
22: Cc1cc2occ(CC(=O)NNC(=O)c3ccccc3)c2cc1C
→ -6, 0, -8, -1, -6, -7
